Measured affinities in a library of Ab-14 light chain variants

Binding partner: SARS-CoV-2 spike HR2 peptide, sequence PDVDLGDISGINAS.

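Phage display of a naive human antibody library on the peptide gave the parent. These sequences belong to a second round, designed from the earlier measurements on random variants of the parent. Group labels follow the data file (En: ensemble of fine-tuned language models; GP: Gaussian process model; HC: hill climbing; Gen: genetic algorithm; Gibbs: Gibbs sampling; a sequence that several methods proposed may carry one label only). The assay is AlphaSeq: two haploid yeast populations carry antibody and antigen on their surface. The frequency of each diploid, read from paired DNA barcodes, reflects how well the two displayed proteins bind. Read counts were normalised to the haploid input and turned into Kd by a linear fit to BCL2-family pairs of known affinity, for each replicate. Each pool was mated in six replicate cultures.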

Each scFv is VH, a (GGGGS)3 linker, VL, as in the parent Ab-14, and differs from it in the CDRs of the light chain only.
VH: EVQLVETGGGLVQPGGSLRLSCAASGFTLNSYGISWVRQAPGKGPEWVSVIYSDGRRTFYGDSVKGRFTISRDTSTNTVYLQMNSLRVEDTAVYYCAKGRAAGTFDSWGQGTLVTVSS
VL: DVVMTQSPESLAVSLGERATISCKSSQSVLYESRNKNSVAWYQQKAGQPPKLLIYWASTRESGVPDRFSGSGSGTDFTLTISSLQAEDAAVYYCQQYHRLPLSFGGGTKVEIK

Variants are written as CDR1, CDR2 and CDR3 of the light chain (limits as in the source). Parent: KSSQSVLYESRNKNSVA, WASTRES, QQYHRLPLS. Variants here have more than six changes. The Kd shown is the geometric mean over detected replicates; a lower Kd is a better binder. Where no diploid with the target was found in any replicate, the entry reads "nd": below detection, most likely a poor binder, though not proof of it. Of ten entries with the parent sequence, four were seen in most replicates (averages 2.2 nM to 240 nM), three in one and three in none, so single entries are noisy.

For KISQMIRVGSTHHNSIA | EEATRAK | QQYHRLPLA [En_Gen], the assay gave 20 nM (6 of 6 replicates).
For TIGGTLMFGMRNRSNVA | EVSERLN | QQYDRLPLI [En_Gen], the assay gave 230 nM (6 of 6 replicates).
For KVSQSVLQGDRNKSSVA | EASTREM | QQYHRLPLS [GP_Gibbs], the assay gave 43 nM (6 of 6 replicates).
For KLRQQTLYESRNKNSVA | NADTREE | QQYHRLPLS [GP_HC], the assay gave 490 pM (6 of 6 replicates).
For KFSQSDDYEDRNKNSVA | SGSTRSS | QQYHRLPLS [GP_Gibbs], the assay gave 1.8 nM (6 of 6 replicates).
For NLGQKMALITEQRNSIA | DSTVRED | QQYSRIPLI [En_Gibbs], the assay gave 22 nM (6 of 6 replicates).
For KLQFSCLYESRMPNSVA | NASTRYS | QQYHRLPLS [GP_Gibbs], the assay gave 1.3 nM (6 of 6 replicates).
For KVSPSQEYESRNKQSVA | HASQREE | QQYHRLPLS [GP_Gibbs], the assay gave 520 pM (6 of 6 replicates).
For KLYQSMGYLSRNKDSIA | DMSRREN | QQYHRLPLS [En_HC], the assay gave 550 pM (6 of 6 replicates).
For VVSGLFQGDEQQYNSIA | EASLSNT | QQYISLPLS [En_Gibbs], the assay gave 110 nM (6 of 6 replicates).
For KLSGSVEMLSRNVNNVA | QASTREL | QAYHRLPLS [GP_Gibbs], the assay gave 1.0 nM (6 of 6 replicates).
For KVSIFMLTMDNAWSSIA | NSAATRT | QYYQRLPLS [En_Gibbs], the assay gave 27 nM (1 of 6 replicates).
For KITATMRFEQKNTNNIA | EVSMRTK | QQYVRLPLA [En_Gen], the assay gave 500 pM (6 of 6 replicates).
For HISQSFMTESVNRNNVA | HQSTREQ | QQYDRLPLS [En_HC], the assay gave 1.1 nM (6 of 6 replicates).
For KSFQSELDEQRNDNSVA | SASTRLS | QQYHRLPLS [GP_Gibbs], the assay gave 2.4 nM (6 of 6 replicates).
For KVQQSELGLSRNKNSVA | EASKRES | QQYHRLPLS [GP_Gibbs], the assay gave 1.6 nM (6 of 6 replicates).
For TIGQTLMQGIRNRSNVA | EVSQRLN | QQYDRLPLT [En_Gen], the assay gave 9.1 nM (6 of 6 replicates).
For KLSLSMSFSEEGTRHIA | NGSNRCH | QQYHRLPLI [En_Gibbs], the assay gave 6.3 nM (6 of 6 replicates).
For ILYDSALTLSRNKNSVA | DNSTRES | QQYDRLPLS [En_HC], the assay gave nd (0 of 6 replicates).
For RITDHFLGLGNGRQNIA | HAGVAVE | QQYHQLPLA [En_Gibbs], the assay gave 3.8 nM (6 of 6 replicates).
For KLASVTGTEKVRGNNVA | EMETREN | QQYNRLPLS [En_Gen], the assay gave 1.6 nM (6 of 6 replicates).
For KLPGEQGYESRNKASVA | QASTRES | QQYHRLPLS [GP_Gibbs], the assay gave 1.6 nM (6 of 6 replicates).
For TLLYGVTEAAKPGKAIA | NNEERAQ | QQYFRLPLS [En_Gibbs], the assay gave 1.6 nM (5 of 6 replicates).
For FMEMDFQENSGRHNSVA | SEEVKTR | QHYGRLPLS [En_Gibbs], the assay gave nd (0 of 6 replicates).
For NLNDSDMYAQQMTDNIA | QDTQRNE | QQYAKLPLS [En_Gibbs], the assay gave 38 nM (6 of 6 replicates).
For KLSGSQLYESRNSNSVA | QGSTRES | QDYHRLPLS [GP_Gibbs], the assay gave 1.0 nM (6 of 6 replicates).
For HIQGYFTMPENANNSIA | EKHYRVR | QQYYRLPLA [En_Gibbs], the assay gave 8.6 nM (6 of 6 replicates).
For GIFSQMDGPTEEKENVA | NGNERLP | QQYQRLPLT [En_Gibbs], the assay gave 2.0 nM (6 of 6 replicates).
For SMETLSQDRRLDWSAVA | EAHTIYQ | QQYARLPLS [En_Gibbs], the assay gave 38 nM (6 of 6 replicates).
For KIGQTLNTLLHQKNNVA | DLVTREN | QQYFRLPLS [En_Gen], the assay gave 1.3 nM (6 of 6 replicates).
For KIGGVTNGISFNKNSVA | EQSTRED | QQYNRLPLS [En_HC], the assay gave 2.7 nM (6 of 6 replicates).
For KISQMTRVGMTHSNSIA | EEVTRAK | QQYHRLPLS [En_Gen], the assay gave 8.7 nM (6 of 6 replicates).
For LISQQELYEQRNKNSVA | DASQRLS | QQYHRLPLS [GP_Gibbs], the assay gave 650 pM (6 of 6 replicates).
For NVHALMNHSSDFQQSIA | DEECRDA | QQYERLPLS [En_Gibbs], the assay gave nd (0 of 6 replicates).
For MMSQVTGMGSRQRNNVA | QTETREP | QQYDRLPLI [En_Gen], the assay gave 80 nM (6 of 6 replicates).
For HVSMLTLGGLKNRNSVA | QMTTRVN | QQYDRLPLA [En_Gen], the assay gave 76 nM (6 of 6 replicates).
For KIEQSVLYEDRNINSVA | NASQRES | QAYHRLPLS [GP_Gibbs], the assay gave 8.9 nM (6 of 6 replicates).
For MSYGGDMLDSVTRNSVA | NAETRED | QDYHRLPLS [En_HC], the assay gave 4.0 nM (6 of 6 replicates).
For KIMQSQLGESRNVNSVA | NASTRLS | QQYHRLPLS [GP_Gibbs], the assay gave 6.4 nM (6 of 6 replicates).
For MISQVMNTLTRHGNNVA | DLEERES | QQYFRLPLS [En_Gen], the assay gave 8.3 nM (4 of 6 replicates).
For HISQMVMYGTCNKNNVA | QVSTREE | QQYHRLPLS [En_HC], the assay gave 3.1 nM (6 of 6 replicates).
For KMNERMRMGENQQHSIA | NAATIVK | QQYHNLPLG [En_Gibbs], the assay gave 830 pM (6 of 6 replicates).
For KLYMTTGYESRNKDSIA | DNSTRGR | QQYHRLPLS [En_HC], the assay gave 41 nM (6 of 6 replicates).
For KISMLINQTFEQGNNVA | EMATREN | QQYHRLPLS [En_Gen], the assay gave 73 nM (5 of 6 replicates).
For KFFQSGLDDMRNDNSVA | SASTRLS | QQYHRLPLS [GP_Gibbs], the assay gave 1.6 nM (6 of 6 replicates).
For KVLQSQEYESRNKNSVA | HASTRED | QQYHCLPLS [GP_HC], the assay gave 3.9 nM (6 of 6 replicates).
For TISQVMNTLTRHGNNVA | DLAERES | QQYFRLPLS [En_Gen], the assay gave 2.0 nM (6 of 6 replicates).
For KIGQTLNQLSHQKNNVA | DLVMREK | QQYHRLPLS [En_Gen], the assay gave 1.8 nM (6 of 6 replicates).
For VLSDTIENQADEADNIA | DATETSK | QQYARLPLS [En_Gibbs], the assay gave 190 nM (4 of 6 replicates).

5 of these entries, quoted again:

{"CDR-L1": "KFFQSGLDDMRNDNSVA", "CDR-L2": "SASTRLS", "CDR-L3": "QQYHRLPLS", "group": "GP_Gibbs", "Kd": "1.6 nM", "detected": "6 of 6"}
{"CDR-L1": "KVLQSQEYESRNKNSVA", "CDR-L2": "HASTRED", "CDR-L3": "QQYHCLPLS", "group": "GP_HC", "Kd": "3.9 nM", "detected": "6 of 6"}
{"CDR-L1": "KISMLINQTFEQGNNVA", "CDR-L2": "EMATREN", "CDR-L3": "QQYHRLPLS", "group": "En_Gen", "Kd": "73 nM", "detected": "5 of 6"}
{"CDR-L1": "KLPGEQGYESRNKASVA", "CDR-L2": "QASTRES", "CDR-L3": "QQYHRLPLS", "group": "GP_Gibbs", "Kd": "1.6 nM", "detected": "6 of 6"}
{"CDR-L1": "HIQGYFTMPENANNSIA", "CDR-L2": "EKHYRVR", "CDR-L3": "QQYYRLPLA", "group": "En_Gibbs", "Kd": "8.6 nM", "detected": "6 of 6"}

Background: pairings of all light chain designs with three empty control strains gave a value in 4% of cases (median 430 nM, 5th percentile 38 nM). Values in that range, when seen in few replicates, are hard to tell from nonspecific mating. The range of this assay differs from that of the first round, and the authors advise against merging the two. The authors' rule: three or more of the six replicates give a measured affinity, fewer mean a poor binder.

From the AlphaSeq antibody data of Li et al. 2023 (doi:10.1038/s41467-023-39022-2), copy in the FLAb collection.